Laboratory results as given in PMC11860776 (Viruses, 2025).

Molecular target: T1, mIMPα2ΔIBB (Mus musculus, UniProt P52293)
T1 construct: made in house; host or cells: bacteria
Assay: AlphaScreen-based binding assay of biotinylated NLS peptides to importin α
Details: biotinylated NLS peptide

GACHAtKPRIT [NLS1 NLS mut]
specific binding to mIMPα2ΔIBB: no specific binding was detected
